The record followed here is ChEMBL document CHEMBL1121722, “Nonquaternary cholinesterase reactivators. Dialkylaminoalkyl thioesters of alpha-ketothiohydroximic acids as reactivators of diisopropyl phosphorofluoridate inhibited acetylcholinesterase” (1981).

Amino acid sequences for entries named in this document (tags omitted). A change or cut given only in a name is not applied to a line headed by its entry.
UniProt P22303: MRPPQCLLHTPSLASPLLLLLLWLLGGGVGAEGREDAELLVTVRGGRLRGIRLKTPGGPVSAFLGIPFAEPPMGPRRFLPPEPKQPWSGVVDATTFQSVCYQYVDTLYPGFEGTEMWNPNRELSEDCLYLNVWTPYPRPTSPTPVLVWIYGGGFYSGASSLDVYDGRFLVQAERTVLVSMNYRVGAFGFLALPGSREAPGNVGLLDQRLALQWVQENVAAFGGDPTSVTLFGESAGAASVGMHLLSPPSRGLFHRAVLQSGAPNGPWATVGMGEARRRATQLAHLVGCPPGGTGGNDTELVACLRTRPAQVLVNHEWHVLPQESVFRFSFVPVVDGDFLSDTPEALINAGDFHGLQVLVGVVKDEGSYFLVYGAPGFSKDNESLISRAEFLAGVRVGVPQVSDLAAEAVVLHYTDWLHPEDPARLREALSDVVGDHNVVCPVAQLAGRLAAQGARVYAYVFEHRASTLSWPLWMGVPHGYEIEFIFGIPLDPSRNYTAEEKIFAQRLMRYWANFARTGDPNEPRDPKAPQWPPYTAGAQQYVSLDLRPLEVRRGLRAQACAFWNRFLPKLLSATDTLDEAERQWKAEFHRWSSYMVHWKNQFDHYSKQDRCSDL

Experiment [1] has as its target Acetylcholinesterase (Homo sapiens) (UniProt P22303). The experiment in a line: Maximum attainable percent reactivation obtained for a range of concentrations of 12M*10e4 HOX and 4.51M*10e4OX.
Experiment [2] has the same target. Put plainly: Maximum attainable percent reactivation obtained for a range of concentrations of 7M*10e4 HOX and 2.63M*10e4OX.
For experiment [3] the target is unchanged. Put plainly: Maximum attainable percent reactivation obtained for a range of concentrations of 20 M*10e4 HOX and 7.52M*10e4OX.
For experiment [4] the target is unchanged. Put plainly: Ratio of [EOP'']infinity to that of [EOH]infinity for reactivation of acetylcholinesterase at concentration of 7M*10e4 [HOX] and 3.80 Me-1*10e-3 [OX]e-1; Expressed as [EOP'']infinity/[EOH]infinity.
Experiment [5] has the same target. Put plainly: 1/kmax for reactivation of acetylcholinesterase at concentration of 2M*10e4 [HOX] and 13.3Me-1*10e-3 [OX]e-1 was determined; Expressed as 1/kmax, min.
The target is the same in experiment [6]. Put plainly: keff (rel) for reactivation of acetylcholinesterase at concentration of 2M*10e4 [HOX] and 13.3Me-1*10e-3 [OX]e-1 was determined; Expressed as keff (rel).
Experiment [7] has the same target. The experiment in a line: Percent reactivation of acetylcholinesterase after 2 hr incubation.
For experiment [8] the target is unchanged. Put plainly: Ratio of Kr/kmax for reactivation of acetylcholinesterase at concentration of 2M*10e4 [HOX] and 13.3Me-1*10e-3 [OX]e-1 was determined; Expressed as Kr/kmax, M-min*10e2.
Experiment [9] shares this target. The experiment in a line: Maximum attainable percent reactivation obtained for a range of concentrations of 10M*10e4 HOX and 3.76M*10e4OX.
For experiment [10] the target is unchanged. Put plainly: Ratio of [EOP'']infinity to that of [EOH]infinity for reactivation of acetylcholinesterase at concentration of 4M*10e4 [HOX] and 6.65Me-1*10e-3 [OX]e-1; Expressed as [EOP'']infinity/[EOH]infinity.
The target is the same in experiment [11]. Put plainly: Kinetic constant was determined for reactivation of acetylcholinesterase at concentration of 2M*10e4 [HOX] and 13.3Me-1*10e-3 [OX]e-1; (kobsd-ka)e-1, min.
Experiment [12] has the same target. The experiment in a line: Kr for reactivation of acetylcholinesterase at concentration of 2M*10e4 [HOX] and 13.3Me-1*10e-3 [OX]e-1 was determined; Expressed as kr, M*10e4.
Experiment [13] shares this target. The experiment in a line: ka for reactivation of acetylcholinesterase at concentration of 2M*10e4 [HOX] and 13.3Me-1*10e-3 [OX]e-1 was determined; Expressed as ka, 1/min 1*10e3.
The target is the same in experiment [14]. Put plainly: Ratio of kaKr to that of kr for reactivation of acetylcholinesterase at concentration of 2M*10e4 [HOX] and 13.3Me-1*10e-3 [OX]e-1 was determined; Expressed as kaKr/kr; M*10e4.
Experiment [15] shares this target. Put plainly: Percent reactivation of acetylcholinesterase after 4 hr incubation.
Experiment [16] shares this target. Put plainly: Percent reactivation of acetylcholinesterase after 24 hr incubation.
The target is the same in experiment [17]. The experiment in a line: Pseudo first order observed rate constants for reactivation of acetylcholinesterase at 12M*10e4 HOX and 4.51M*10e4OX; Kobs (min-1 X 10e3).
Experiment [18] shares this target. Put plainly: Kinetic constant was determined for reactivation of acetylcholinesterase at concentration of 7M*10e4 [HOX] and 3.80 Me-1*10e-3 [OX]e-1; (kobsd-ka)e-1, min.
The target is the same in experiment [19]. Put plainly: Ratio of [EOP']infinity to that of [EOH]infinity for reactivation of acetylcholinesterase at concentration of 0.0800 M*10e4 [HOX] and 431Me-1*10e-3 [OX]e-1; Expressed as [EOP']infinity/[EOH]infinity.
The target is the same in experiment [20]. The experiment in a line: Ratio of kaKr to that of kr for reactivation of acetylcholinesterase at concentration of 2M*10e4 [HOX] and 10 Me-1*10e-3 [OX]e-1 was determined; Expressed as kaKr/kr; M*10e4.
For experiment [21] the target is unchanged. Put plainly: Maximum attainable percent reactivation obtained for a range of concentrations of 0.160 M *10e4 HOX and 0.0463M*10e4OX.
The target is the same in experiment [22]. Put plainly: Kinetic constant was determined for reactivation of acetylcholinesterase at concentration of 0.200 M*10e4 [HOX] and 175Me-1*10e-3 [OX]e-1; (kobsd-ka)e-1, min.
Experiment [23] shares this target. The experiment in a line: Kinetic constant was determined for reactivation of acetylcholinesterase at concentration of 0.160 M *10e4 [HOX] and 216Me-1*10e-3 [OX]e-1; (kobsd-ka)e-1, min.
Experiment [24] shares this target. The experiment in a line: Pseudo first order observed rate constants for reactivation of acetylcholinesterase at 0.200 M*10e4 HOX and 0.0571 M*10e4OX; Kobs (min-1 X 10e3).

For the compound `CCN(CC)CCS/C(=N\O)C(=O)c1ccc(OC)cc1`, the Reactivation worked out at 4.22% in [1]; 4.1% in [2]; 4.3% in experiment [3]; 31% in [7]; 4.05% in experiment [9]; 58% in experiment [15]. In addition, the Reactivation in experiment [16] is 55%. Further, the [EOP']infinity/[EOH]infinity in experiment [4] was found to be 0.657; in [10], 2.05. In addition, in [5], the 1/kmax was 106 min. The k eff (rel) in [6] is 1. In experiment [8], the Kr/kmax was 330 M-min. Also, the 1/kobsd-ka in experiment [11] turned out to be 538 min; in [18], 180 min. This compound also had a Kr in [12] of 29000 M. In addition, the ka in [13] is 2400 min⁻¹. Further, the kaKr/kr in [14] amounted to 21000 M. The same compound gave a k obs in [17] of 0.115 s⁻¹.

With `C[n+]1ccccc1C=NO`, in experiment [19], the [EOP']infinity/[EOH]infinity amounted to 0.506. Besides, in experiment [20], the kaKr/kr was found to be 75 M. For the same compound, the Reactivation in experiment [21] was determined as 4.42%; in experiment [7], 109%; in experiment [15] it was 105%; in experiment [16], 85%. Further, the 1/kobsd-ka in experiment [22] amounted to 35.4 min; in [23] it was 53.6 min. The k obs in experiment [24] turned out to be 498 s⁻¹.
